From ChEMBL document CHEMBL1134266, “Design and pharmacology of quinuclidine derivatives as M2-selective muscarinic receptor ligands” (Bioorg Med Chem Lett, 2001)

Legend:
[1] = target: Muscarinic acetylcholine receptor M5 (Homo sapiens, UniProt P08912); experiment: Affinity for Muscarinic acetylcholine receptor M5 expressed in CHO cells by [3H]NMS displacement.
[2] = target: Muscarinic acetylcholine receptor M1 (Homo sapiens, UniProt P11229); experiment: Affinity for Muscarinic acetylcholine receptor M1 expressed in CHO cells by [3H]NMS displacement.
[3] = target: Muscarinic acetylcholine receptor M2 (Homo sapiens, UniProt P08172); experiment: Affinity for Muscarinic acetylcholine receptor M2 expressed in CHO cells by [3H]NMS displacement.
[4] = target: Muscarinic acetylcholine receptor M3 (Homo sapiens, UniProt P20309); experiment: Affinity for Muscarinic acetylcholine receptor M3 expressed in CHO cells by [3H]-NMS displacement.
[5] = target: Muscarinic acetylcholine receptor M4 (Homo sapiens, UniProt P08173); experiment: Affinity for Muscarinic acetylcholine receptor M4 expressed in CHO cells by [3H]NMS displacement.

| Structure (SMILES) | Log Ki [1] | Log Ki [2] | Log Ki [3] | Log Ki [4] | Log Ki [5] |
| --- | --- | --- | --- | --- | --- |
| O=C(OC1CN2CCC1CC2)C1=C/C(=C\c2ccccn2)c2ccccc21 (stereo not given) | -6.01 | -5.83 | -6.49 | -5.76 | -5.77 |
| O=C(OC1CN2CCC1CC2)C1=C/C(=C\c2cccnc2)c2ccccc21 (stereo not given) | -5.91 | -6.05 | -6.38 | -5.77 | -5.91 |
| O=C(OC1CN2CCC1CC2)C1=C/C(=C\c2ccncc2)c2ccccc21 (stereo not given) | -5.98 | -5.9 | -6.48 | -5.68 | -5.74 |
